Reference: article PMC6774396 (Frontiers in Immunology, 2019)
Ends that are not written are not given here. * marks the point of attachment. Biotin = O=C1N[C@H]2[C@H](CS[C@H]2CCCCC(=O)*)N1

Test system: Human FERM domain of moesin (residues 1–297)
Experiment: SPR competition of soluble L-selectin tail peptides against chip-immobilized L-selectin tail/moesin FERM complex
Conditions: biotinylated peptide immobilized on streptavidin chip, 5 μM moesin FERM in HBS-P pH 7.4, 25°C

## biotinylated NPP: N-terminally biotinylated human L-selectin tail peptide (conjugated to Arg-356), immobilized on streptavidin chip (Biotin-RRLKKGKKSKRSMNDPY)
  complex formation with moesin FERM: stable complex
